2 compounds from patent US9388112B2, “Bisphenol derivatives and their use as androgen receptor activity modulators” (The University of British Columbia, priority 2010, dated 2016) can be followed below.

Sequences of proteins named here, by UniProt entry; tags and fusion partners are left off.
UniProt P10275, whole entry T878A: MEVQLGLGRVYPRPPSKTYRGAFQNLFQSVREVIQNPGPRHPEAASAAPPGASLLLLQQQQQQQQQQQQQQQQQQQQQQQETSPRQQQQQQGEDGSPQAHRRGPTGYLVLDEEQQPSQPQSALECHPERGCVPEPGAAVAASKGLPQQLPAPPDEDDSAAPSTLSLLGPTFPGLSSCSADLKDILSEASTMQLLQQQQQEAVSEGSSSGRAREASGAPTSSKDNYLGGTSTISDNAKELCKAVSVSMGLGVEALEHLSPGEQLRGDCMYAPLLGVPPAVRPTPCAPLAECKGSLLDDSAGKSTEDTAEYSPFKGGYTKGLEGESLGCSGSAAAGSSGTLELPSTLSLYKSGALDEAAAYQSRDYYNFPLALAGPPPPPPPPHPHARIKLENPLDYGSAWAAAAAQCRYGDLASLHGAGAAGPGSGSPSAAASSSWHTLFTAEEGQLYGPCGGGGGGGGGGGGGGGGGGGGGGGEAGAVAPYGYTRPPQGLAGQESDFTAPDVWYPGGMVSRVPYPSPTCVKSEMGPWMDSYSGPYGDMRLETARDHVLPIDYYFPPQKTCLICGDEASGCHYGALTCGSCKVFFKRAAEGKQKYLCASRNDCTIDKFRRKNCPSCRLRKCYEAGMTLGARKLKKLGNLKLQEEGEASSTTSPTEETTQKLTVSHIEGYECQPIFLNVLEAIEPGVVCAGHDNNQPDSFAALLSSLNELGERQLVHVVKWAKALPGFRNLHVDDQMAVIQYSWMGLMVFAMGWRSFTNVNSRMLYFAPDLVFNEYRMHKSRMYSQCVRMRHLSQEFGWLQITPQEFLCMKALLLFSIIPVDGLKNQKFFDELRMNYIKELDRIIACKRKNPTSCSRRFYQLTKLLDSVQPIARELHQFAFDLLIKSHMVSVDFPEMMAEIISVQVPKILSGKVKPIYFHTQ

The target of this assay is T1, androgen receptor (AR) (Homo sapiens, UniProt P10275, T878A).
T1 construct: LNCaP cells express endogenous AR; endogenous in cells; host or cells: LNCaP cells
Kind of assay: LNCaP PSA (6.1 kb)-luciferase assay (R1881-induced). The format is cell-based. As to conditions: LNCaP cells transfected with PSA (6.1 kb)-luciferase, 1 h pre-treatment, R1881 1 nM, 48 h. The text has this: LNCaP cells were employed initially for all experiments because they are well-differentiated human prostate cancer cells in which ligand-independent activation of the AR by FSK has been characterized (Nazareth et al 1996 J. Biol. Chem. 271, 19900-19907; and Sadar 1999 J. Biol. Chem. 274, 7777-7783). LNCaP cells express endogenous AR and secrete prostate-specific antigen (PSA) (Horoszewicz et al 1983 Cancer Res. 43, 1809-1818). LNCaP cells can be grown either as monolayers in cell culture or as tumors in the well-characterized xenograft model that progresses to androgen independence in castrated hosts (Sato et al 1996 J. Steroid Biochem. Mol. Biol. 58, 139-146; Gleave et al 1991 Cancer Res. 51, 3753-3761; Sato et al 1997 Cancer Res. 57, 1584-1589; and Sadar et al 2002 Mol. Cancer Ther. 1(8), 629-637). […] Small molecules that specifically target the AR-NTD should have no effect on PC3 cells. […] Reporter specificity may be determined using several alternative reporter gene constructs. […]
LNCaP cells were transiently cotransfected with PSA (6.1 kb)-luciferase (0.25 μg/well) in 24-well plates for 24 h prior to pre-treatment with compounds for 1 hour before the addition of synthetic androgen, R1881 (1 nM) to induce PSA production or vehicle. […] After 48 h of incubation with R1881, the cells were harvested, and relative luciferase activity was determined. […]

Consider `CC(C)(c1ccc(O)cc1)c1ccc(OCCOCCOCCO)cc1` [drawing 872], for which the “EX[…] (activity in the described assays)” value is “Active”.
As for `CC(C)(c1ccc(OCCCCl)cc1)c1ccc(OCCOCCOCCO)cc1`, the “EX[…] (activity in the described assays)” value is reported as “Active”.
